Earlier results as cited in patent publication US11823773B2, “Nant cancer vaccine strategies” (Nant Holdings IP, LLC, priority 2018, dated 2023).

Tested on: metastatic melanoma

interleukin-2 [IL-2]
toxicity (in vivo): high toxicities | responders remaining progression free (of the subjects who responded, median follow-up of 62 months): 28% | overall ORR (subjects with metastatic melanoma, high-dose IL-2): 16%
